Paper PMC9792439

Target: His-tagged WT-UBQLN2 (human) (UniProt Q9UHD9)
Assay: pull-down

With “K63 poly-ubiquitin (1-7) chains (from UniProt P0CG48 1-76)” as the substance, how does the fold more bound than K48 chains read?
The fold more bound than K48 chains was 10 fold.
